What was measured:
KRas G13D = molecular target: T1, KRas G13D (Homo sapiens, UniProt P01116, G13D); experiment: KRas binding assay (TR-FRET displacement); conditions: TR-FRET tracer displacement, 60-minute incubation at room temperature;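 further: One-hour room temperature incubation before TR-FRET reading, IC50 from a four-parameter curve fit to percent-of-control data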
T1 construct: Biotinylated KRas (corresponding to amino acids 1-169, produced at Accelegan Inc.); biotin (biotinylated); purchased Accelegan Inc

Chains of the proteins cited; added tags and fusions are not shown. Lines headed by an entry give the natural chain unless they say otherwise; changes in a name come on top.
UniProt P01116: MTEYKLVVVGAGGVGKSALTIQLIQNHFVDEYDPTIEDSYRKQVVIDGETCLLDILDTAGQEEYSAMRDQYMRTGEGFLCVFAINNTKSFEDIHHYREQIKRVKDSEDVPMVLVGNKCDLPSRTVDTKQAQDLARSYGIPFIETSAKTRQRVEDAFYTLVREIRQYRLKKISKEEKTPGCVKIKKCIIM

KRas Q61H = molecular target: T2, KRas Q61H (Homo sapiens, UniProt P01116, Q61H); experiment: KRas binding assay (TR-FRET displacement); conditions: TR-FRET tracer displacement, 60-minute incubation at room temperature;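 further: TR-FRET signal read after one hour at room temperature, IC50 derived by four-parameter fitting of percent-of-control values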
T2 construct: Biotinylated KRas (corresponding to amino acids 1-169, produced at Accelegan Inc.); biotin (biotinylated); purchased Accelegan Inc

SMILES | IC50 (KRas G13D) | IC50 (KRas Q61H)
CCc1c(F)ccc2cc(O)cc(-c3ncc4c(N5CCCCCC5)nc(OC[C@@]56CCCN5C[C@H](F)C6)nc4c3F)c12 [Example 317, 4-(4-(azepan-1-yl)-8-fluoro-2-(((2R,7aS)-2-fluorohexahydro-1H-pyrrolizin-7a-yl)methoxy)pyrido[4,3-d]pyrimidin-7-yl)-5-ethyl-6-fluoronaphthalen-2-ol] | ≤ 2 nM | ≤ 2 nM
CCc1c(F)ccc2cc(O)cc(-c3ncc4c(N5CCCC6(CC(=O)NC6=O)C5)nc(OC[C@@]56CCCN5C[C@H](F)C6)nc4c3F)c12 (stereo partly drawn) [Example 318, 7-(7-(8-ethyl-7-fluoro-3-hydroxynaphthalen-1-yl)-8-fluoro-2-(((2R,7aS)-2-fluorohexahydro-1H-pyrrolizin-7a-yl)methoxy)pyrido[4,3-d]pyrimidin-4-yl)-2,7-diazaspiro[4.5]decane-1,3-dione] | ≤ 2 nM | ≤ 2 nM
CCc1c(F)ccc2cc(O)cc(-c3ncc4c(N5CCC[C@]6(CC(=O)N6)C5)nc(OCC5(CN6CCCC6)CC5)nc4c3F)c12 [Example 319, (S)-6-(7-(8-ethyl-7-fluoro-3-hydroxynaphthalen-1-yl)-8-fluoro-2-((1-(pyrrolidin-1-ylmethyl)cyclopropyl)methoxy)pyrido[4,3-d]pyrimidin-4-yl)-1,6-diazaspiro[3.5]nonan-2-one] | ≤ 2 nM | ≤ 2 nM
CCc1c(F)ccc2cc(O)cc(-c3ncc4c(N5C[C@@H]6C[C@H](C5)[C@H](O)C6)nc(OCC5(CN6CCCC6)CC5)nc4c3F)c12 [Example 320, (1R,5R,6R)-3-(7-(8-ethyl-7-fluoro-3-hydroxynaphthalen-1-yl)-8-fluoro-2-((1-(pyrrolidin-1-ylmethyl)cyclopropyl)methoxy)pyrido[4,3-d]pyrimidin-4-yl)-3-azabicyclo[3,2,1]octan-6-ol] | ≤ 2 nM | ≤ 2 nM
CCc1c(F)ccc2cc(O)cc(-c3ncc4c(N5CCOC[C@@](C)(O)C5)nc(OCC5(CN6CCCC6)CC5)nc4c3F)c12 [Example 321, (S)-4-(7-(8-ethyl-7-fluoro-3-hydroxynaphthalen-1-yl)-8-fluoro-2-((1-(pyrrolidin-1-ylmethyl)cyclopropyl)methoxy)pyrido[4,3-d]pyrimidin-4-yl)-6-methyl-1,4-oxazepan-6-ol] | ≤ 2 nM | ≤ 2 nM
CCc1c(F)ccc2cc(O)cc(-c3ncc4c(N5CCCCCCC5)nc(OC[C@@]56CCCN5C[C@H](F)C6)nc4c3F)c12 [Example 325, 4-(4-(azocan-1-yl)-8-fluoro-2-(((2R,7aS)-2-fluorohexahydro-1H-pyrrolizin-7a-yl)methoxy)pyrido[4,3-d]pyrimidin-7-yl)-5-ethyl-6-fluoronaphthalen-2-ol] | ≤ 2 nM | ≤ 2 nM
CCc1c(F)ccc2cc(O)cc(-c3ncc4c(N5CCCn6nc(C(=O)N(C)C)cc6C5)nc(OC[C@@]56CCCN5C[C@H](F)C6)nc4c3F)c12 [Example 326, 5-(7-(8-ethyl-7-fluoro-3-hydroxynaphthalen-1-yl)-8-fluoro-2-(((2R,7aS)-2-fluorohexahydro-1H-pyrrolizin-7a-yl)methoxy)pyrido[4,3-d]pyrimidin-4-yl)-N,N-dimethyl-5,6,7,8-tetrahydro-4H-pyrazolo[1,5-a][1,4]diazepine-2-carboxamide] | ≤ 2 nM | ≤ 2 nM
C#Cc1c(F)ccc2cc(O)cc(-c3ncc4c(N5CCCC(O)C5)nc(OCCN(C)C)nc4c3F)c12 (stereo not drawn) [Example 387, 1-(2-(2-(dimethylamino)ethoxy)-7-(8-ethynyl-7-fluoro-3-hydroxynaphthalen-1-yl)-8-fluoropyrido[4,3-d]pyrimidin-4-yl)piperidin-3-ol] | 130 nM | 153 nM
C#Cc1c(F)ccc2cc(O)cc(-c3ncc4c(N5C[C@@H]6C[C@H](C5)[C@H](O)C6)nc(OC[C@@]56CCCN5C[C@H](F)C6)nc4c3F)c12 [Example 388, (1R,5R,6R)-3-(7-(8-ethynyl-7-fluoro-3-hydroxynaphthalen-1-yl)-8-fluoro-2-(((2R,7aS)-2-fluorohexahydro-1II-pyrrolizin-7a-yl)methoxy)pyrido[4,3-d]pyrimidin-4-yl)-3-azabicyclo[3,2,1]octan-6-ol] | ≤ 2 nM | ≤ 2 nM
C#Cc1c(F)ccc2cc(O)cc(-c3ncc4c(N5CC6C(=O)NC(=O)C6C5)nc(OC[C@@]56CCCN5C[C@H](F)C6)nc4c3F)c12 (stereo partly drawn) [Example 389, 5-(7-(8-ethynyl-7-fluoro-3-hydroxynaphthalen-1-yl)-8-fluoro-2-(((2R,7aS)-2-fluorohexahydro-1H-pyrrolizin-7a-yl)methoxy)pyrido[4,3-d]pyrimidin-4-yl)tetrahydropyrrolo[3,4-c]pyrrole-1,3(2H,3aH)-dione] | ≤ 2 nM | ≤ 2 nM
Cc1ccc2[nH]ncc2c1-c1ncc2c(N3CCCC(C)(O)C3)nc(OCC34CCCN3CCC4)nc2c1F (stereo not drawn) [Example 430, 1-(8-fluoro-2-((hexahydro-1H-pyrrolizin-7a-yl)methoxy)-7-(5-methyl-1H-indazol-4-yl)pyrido[4,3-d]pyrimidin-4-yl)-3-methylpiperidin-3-ol] | 5490 nM | 8860 nM
Cc1cc(-c2ncc3c(N4CCCC(C)(O)C4)nc(OCC45CCCN4CCC5)nc3c2F)c2cn[nH]c2c1 (stereo not drawn) [Example 431, 1-(8-fluoro-7-(6-methyl-1H-indazol-4-yl)-2-((tetrahydro-1H-pyrrolizin-7a(5H)-yl)methoxy)pyrido[4,3-d]pyrimidin-4-yl)-3-methylpiperidin-3-ol] | 13300 nM | 22200 nM
Cc1ccc(O)cc1-c1ncc2c(N3CCCC(C)(O)C3)nc(OCC34CCCN3CCC4)nc2c1F (stereo not drawn) [Example 432, 1-(8-fluoro-2-((hexahydro-1H-pyrrolizin-7a-yl)methoxy)-7-(5-hydroxy-2-methylphenyl)pyrido[4,3-d]pyrimidin-4-yl)-3-methylpiperidin-3-ol] | 1670 nM | 2810 nM
N#CCc1cccc2cccc(-c3ncc4c(N5CCCC6(CC(=O)N6)C5)nc(OCC56CCCN5CCC6)nc4c3F)c12 (stereo not drawn) [Example 434, 2-(8-(8-fluoro-2-((hexahydro-1H-pyrrolizin-7a-yl)methoxy)-4-(2-oxo-1,6-diazaspiro[3.5]nonan-6-yl)pyrido[4,3-d]pyrimidin-7-yl)naphthalen-1-yl)acetonitrile] | 6600 nM | 9270 nM
Cc1cc(N)nc(-c2ncc3c(N4CCC[C@@](C)(O)C4)nc(OC[C@@H]4CCCN4C)nc3c2F)c1C(F)(F)F [Example 435, (R)-1-(7-(6-amino-4-methyl-3-(trifluoromethyl)pyridin-2-yl)-8-fluoro-2-(((S)-1-methylpyrrolidin-2-yl)methoxy)pyrido[4,3-d]pyrimidin-4-yl)-3-methylpiperidin-3-ol] | 2060 nM | 6100 nM
NS(=O)(=O)CC1CCCN(c2nc(OCC34CCCN3CCC4)nc3c(F)c(-c4cccc5ccccc45)ncc23)C1 (stereo not drawn) [Example 436] | 212 nM | 173 nM
C#Cc1cccc2cccc(-c3ncc4c(N5CCCC(CS(N)(=O)=O)C5)nc(OCC56CCCN5CCC6)nc4c3F)c12 (stereo not drawn) [Example 437, 1-(1-(7-(8-ethynylnaphthalene-1-yl)-8-fluoro-2-((hexahydro-1H-pyrrolizin-7a-yl)methoxy)pyrido[4,3-d]pyrimidin-4-yl)piperidin-3-yl)methanesulfonamide] | 754 nM | 897 nM
Cc1cccc2cccc(-c3ncc4c(N5CCCC(CS(N)(=O)=O)C5)nc(OCC56CCCN5CCC6)nc4c3F)c12 (stereo not drawn) [Example 438, 1-(1-(8-fluoro-2-((hexahydro-1H-pyrrolizin-7a-yl)methoxy)-7-(8-methylnaphthalen-1-yl)pyrido[4,3-d]pyrimidin-4-yl)piperidin-3-yl)methanesulfonamide] | 117 nM | 87 nM
NS(=O)(=O)CC1CCCN(c2nc(OCC34CCCN3CCC4)nc3c(F)c(-c4cccc5cccc(CO)c45)ncc23)C1 (stereo not drawn) [Example 439, 1-(1-(8-fluoro-2-((hexahydro-1H-pyrrolizin-7a-yl)methoxy)-7-(8-(hydroxymethyl)naphthalen-1-yl)pyrido[4,3-d]pyrimidin-4-yl)piperidin-3-yl)methanesulfonamide] | 2440 nM | 1910 nM
CC1(O)CCCN(c2nc(OCC34CCCN3CCC4)nc3c(F)c(-c4cccc5cccc(C6CC6)c45)ncc23)C1 (stereo not drawn) [Example 440, 1-(7-(8-cyclopropylnaphthalen-1-yl)-8-fluoro-2-((hexahydro-1H-pyrrolizin-7a-yl)methoxy)pyrido[4,3-d]pyrimidin-4yl)-3-methylpiperidin-3-ol] | 767 nM | 940 nM
O=S1(=O)CC(CNc2nc(OCC34CCCN3CCC4)nc3c(F)c(-c4cccc5cccc(CO)c45)ncc23)C1 [Example 443, 3-(((8-fluoro-2-((hexahydro-1H-pyrrolizin-7a-yl)methoxy)-7-(8-(hydroxymethyl)naphthalen-1-yl)pyrido[4,3-d]pyrimidin-4-yl)amino)methyl)thietane1,1-dioxide] | 22200 nM | 32600 nM
O=C1NC(=O)C2(CCCN(c3nc(OCC45CCCN4CCC5)nc4c(F)c(-c5cccc6cccc(CO)c56)ncc34)C2)N1 (stereo not drawn) [Example 447, 7-(8-fluoro-2-((hexahydro-1H-pyrrolizin-7a-yl)methoxy)-7-(8-(hydroxymethyl)naphthalen-1-yl)pyrido[4,3-d]pyrimidin-4-yl)-1,3,7-triazaspiro[4.5]decane-2,4-dione] | 578 nM | 752 nM
Cc1cccc2cccc(-c3ncc4c(N5CCCC6(C5)NC(=O)NC6=O)nc(OCC56CCCN5CCC6)nc4c3F)c12 (stereo not drawn) [Example 448, 7-(8-fluoro-2-((hexahydro-1H-pyrrolizin-7a-yl)methoxy)-7-(8-methylnaphthalen-1-yl)pyrido[4,3-d]pyrimidin-4-yl)-1,3,7-triazaspiro[4.5]decane-2,4-dione] | 62 nM | 60 nM
N#Cc1cccc2cccc(-c3ncc4c(N5CCCC6(C5)NC(=O)NC6=O)nc(OCC56CCCN5CCC6)nc4c3F)c12 (stereo not drawn) [Example 449, 8-(4-(2,4-dioxo-1,3,7-triazaspiro[4.5]decan-7-yl)-8-fluoro-2-((hexahydro-1H-pyrrolizin-7a-yl)methoxy)pyrido[4,3-d]pyrimidin-7-yl)-1-naphthonitrile] | 5530 nM | 6400 nM
